Test system: ABCA1 message in THP-1 cells
Assay: ABCA1 message by RT-PCR and gel densitometry (celecoxib example, COX-2 silencing)
Type: cell-based, human
Details: 50 μM, 18 h

Cc1ccc(-c2cc(C(F)(F)F)nn2-c2ccc(S(N)(=O)=O)cc2)cc1 [Celecoxib, celecoxib]
decrease in ABCA1 message vs. control: 65.1%±1.5
